Literature values in paper PMC7365701 (Journal of medicinal chemistry, 2020).

System: PPARα
Details: cited from earlier work

## Cc1nc(-c2ccc(C(F)(F)F)cc2)sc1C(=O)NCc1ccc(OC(C)(C)C(=O)O)cc1 [GW590735]
  selectivity over PPARγ and PPARδ: ≥ 500 fold
